uPA surface inh: cell surface uPA generation inhibition; cell surface uPA generation assay, qHTS; Potency, µM (series often up to 38.3 µM), actives largely listed as inhibitors; 330,000 tested, 0.31% active; active means well fitted inhibition curve with a large enough effect; inconclusive means small, poorly fitted or top-dose-only effect; inactive means no such curve, though single readings can be large or run the other way; tested in mouse RAW 264.7 cells; further: nearly all actives have a fitted effect of over 55% in size
miR-21 reporter: raises the signal of a miR-21 reporter | HeLa miR-21 FLuc reporter, luciferase, 48 h | Potency, µM (highest dose often 38.3 µM) | 340,000 tested, under 10 active | AID 2288; active = well fitted rising curve with a large enough effect; inconclusive = small, poorly fitted or top-dose-only effect; inactive = no such curve, though single readings can be large or run the other way;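 also: miR-21 action dims this reporter so a rising signal means less miR-21 action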
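HeLa cells endogenously expressing miR-21, stably carrying CMV-driven firefly luciferase with a downstream miR-21 binding site, 2000 cells/well. Titrations up to approximately 40 uM, 48 hours; luciferase luminescence read.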
TDP1 cell CPT: growth inhibition of DT40 Tdp1-/-;hTDP1 cells with camptothecin (screen for TDP1 inhibitors) | chicken DT40 Tdp1-/-;hTDP1 cells + 20 nM CPT, ATP luminescence, 48 h | Potency, µM (titrated, usually from 46.2 µM), actives largely listed as inhibitors | 420,000 tested, 12% active; further: nearly all actives have a fitted effect of over 55% in size
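Chicken DT40 Tdp1-/- cells complemented with human TDP1, 400 cells/well, exposed to compounds plus 20 nM camptothecin for at least 48 h at 37 C; viability read as ATP content by CellTiter-Glo luminescence.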
DT40 TDP1 no CPT: qHTS for Inhibitors of human tyrosyl-DNA phosphodiesterase 1 (TDP1): qHTS in cells in absence of CPT. 420,000 tested, 15% active. Potency, µM (highest dose often 46.2 µM), most hits filed as inhibitors. DT40 Tdp1-/- hTDP1 cells, no CPT, ATP luminescence, 48 h; further: nearly all actives have a fitted effect of over 55% in size
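A cellular qHTS used chicken DT40 cells lacking endogenous Tdp1 but carrying stably transfected human TDP1. Compounds were applied without camptothecin, and cell growth kinetics were judged by ATP-dependent luminescence after ≥48 hr.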
TDP1 block: TDP1 (human) enzyme inhibition; Q9NUW8; recombinant TDP1, AlphaScreen DNA substrate cleavage; Potency, µM (top dose mostly 130 µM), hits mostly inhibitors; 350,000 tested, 0.28% active; AID 485290; further: nearly all actives have a fitted effect of over 40% in size
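Signal: AlphaScreen proximity between streptavidin donor and anti-FITC acceptor beads on intact substrate. Reaction: Tdp1 1 nM, substrate 15 nM final, 5 min RT after 15 min compound preincubation.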
Numbers stand for hits; n = inactive; u = inconclusive; x = not tested or not shown; [ ] = another dose, or the depositor's remark. Compounds with a hit are over-represented: about 16% of the library has one in this group of screens. Unless noted, the call rests on the fitted dose curve; in most records, active means well fitted curve in the direction sought with a large enough effect; inconclusive means small, poorly fitted or top-dose-only effect, or another doubt; inactive means no such curve, though single readings can be large; an effect the other way counts as inactive or inconclusive.

SMILES | uPA surface inh | miR-21 reporter | TDP1 cell CPT | DT40 TDP1 no CPT | TDP1 block
CCC(C)c1ccccc1OCCCNC1CCCC1 (stereo not drawn) | u | n | u | 18.4µM | x
c1ccc(COc2ccc(OCCCNC3CCCC3)cc2)cc1 | n | n | u | 20.6µM | n
C=CCNCCCCOc1ccccc1-c1ccccc1 | n | n | u | u | n
CN1CCN(C(=O)c2ccc(CN(c3ccccc3)S(=O)(=O)c3ccccc3)cc2)CC1 | n | n | u | n | n
COc1cc(CNC(=O)OCC(C)C)cc(OC)c1OC | n | n | n | n | n
CCOC(=O)C(CC(=O)O)NCc1ccco1 (stereo not drawn) | n | n | n | n | n
Cc1cc(C(=O)NCc2nnc3n2CCN(Cc2ccc4c(c2)Cc2ccccc2-4)CC3)c(C)o1 | x | x | u | 16.4µM | x
Cc1cc(C(=O)NCc2nnc3n2CCN(Cc2ccc(C)c(C)c2)CC3)c(C)o1 | x | x | n[9.04 µM] | n | x
O=C(NC1CC(=O)N(c2ccc(F)cc2)C1)c1cc2ccccc2o1 (stereo not drawn) | x | n | n | n | n
CCOc1c2c(c(-c3ccc4c(c3)OCO4)c3cc(OC)c(OC)cc13)C(=O)OC2 | x | x | 0.891µM | 0.562µM | n
O=C(N/N=C/c1ccc(Br)s1)c1cccc([N+](=O)[O-])c1 | n | n | u | u | x
COC(=O)N/N=C/c1ccc([N+](=O)[O-])s1 | n | n | 13µM | 14.6µM | n
O=C(Cc1ccccc1)N/N=C/c1ccc([N+](=O)[O-])s1 | n | n | 20.6µM | 23.1µM | n
O=C(N/N=C/c1ccc([N+](=O)[O-])s1)c1ccccc1 | n | n | 4.61µM | 4.11µM | n
O=C(Cc1ccccc1)N/N=C/c1cccs1 | n | n | n | n | n
O=C(N/N=C\c1ccc([N+](=O)[O-])s1)c1cncc(Br)c1 | u | u | 5.17µM | 3.26µM | n
CC(C)(C)NCC(O)COc1cccc2c1C[C@H](O)[C@H](O)C2 (stereo partly drawn) | n | n | n | n | n
Cc1ccccc1C(=O)N/N=C/c1ccc([N+](=O)[O-])s1 | u | u | 16.4µM | 13µM | n
Cc1ccnn1CC(=O)N/N=C/c1ccc([N+](=O)[O-])s1 | u | u | 25.9µM | 23.1µM | n
CCOc1ccccc1NC(=O)C(=O)N/N=C/c1ccc([N+](=O)[O-])cc1 | n | n | n | n | n
O=C(CNC(=O)c1cccc(F)c1)N/N=C/c1ccc([N+](=O)[O-])s1 | 10µM | n | 18.4µM | 5.8µM | n
COc1ccccc1NC(=O)C(=O)N/N=C/c1ccc([N+](=O)[O-])s1 | u | n | 11.6µM | u | n
CCCCC(=O)Nc1cccn2ncnc12 | n | n | n | u | n
CC(SC(C)C(=O)NN=Cc1ccc(F)cc1)C(=O)NN=Cc1ccc(F)cc1 (stereo not drawn) | n | x | n | u | x
COCCNC(=O)[C@H]1C[C@@H]1[C@H](NP(=O)(c1ccccc1)c1ccccc1)c1ccccc1 | n | n | u | u | n
SMILES | uPA surface inh | miR-21 reporter | TDP1 cell CPT | DT40 TDP1 no CPT | TDP1 block
O=C(Cc1cccc2ccccc12)N1CC[C@@]2(O)CCCC[C@H]2C1 | n | n | n | u | n
Cc1ccc(OCCC(=O)Nc2ccccc2C(=O)NC2CC2)cc1 | n | n | u | n | n
COc1ccc(NC(C)C(=O)N/N=C/c2ccc([N+](=O)[O-])s2)cc1 (stereo not drawn) | n | u | 16.4µM | 23.1µM | n
CCNc1nc(NCC)n2c(SCC(=O)O)nnc2n1 | n | n | n | n | n
O=C(Nc1ccncc1)Nc1ccc(Cl)cc1Cl | n | n | 18.4µM | u | n
CC(Oc1ccc(Cl)cc1Cl)C(=O)Nc1ccncc1 (stereo not drawn) | n | n | 20.6µM | 9.2µM | n
Cc1cc(C)nc(NC(=O)/C=C/c2ccc(Cl)cc2Cl)c1 | n | n | u | 13µM | n
O=C(/C=C/c1c(Cl)cccc1Cl)Nc1ccncc1 | n | n | u | 20.6µM | n
COc1ccccc1NC(=O)c1cn(C)c(=O)c2cc(OC)c(OC)cc12 | n | n | n | n | n
O=C(NCCC(=O)N1CCN(C(=O)c2ccco2)CC1)c1ccccc1Cl | n | x | n | n | n
O=C(/C=C/c1ccc(Cl)cc1Cl)Nc1ccncc1 | n | n | u | 14.6µM | n
CC(C)C(C(=O)Nc1ccncc1)c1ccc(Cl)cc1 (stereo not drawn) | u | n | u | 16.4µM | n
CCOC(=O)c1c(C)[nH]c(C(=O)CN2C(=O)NC(C)(c3ccc4ccccc4c3)C2=O)c1C (stereo not drawn) | n | n | u | u | n
Cc1cccc(N2C(=O)CC(N3CCN(c4ccccn4)CC3)C2=O)c1 (stereo not drawn) | n | n | n | n | n
COC(=O)C1=C/CCCN(C(c2ccccc2)c2ccccc2)/C=C\1C(=O)OC | x | x | u | n | x
CCc1ccccc1NC(=O)CN1C(=O)C2CCCN2c2ccc(S(=O)(=O)N(CC)CC)cc21 (stereo not drawn) | x | n | n | n | n
CC1CCC2C(=O)N(c3ccc(C(=O)Oc4cccc5cccnc45)cc3)C(=O)C2C1 (stereo not drawn) | n | n | 0.731µM | 0.651µM | n
c1cn(CCCNC2CCCCCCC2)cn1 | n | x | n | n | x
CC(C)Cn1c(SCC(=O)NC2CCCc3ccccc32)nc(O)cc1=O (stereo not drawn) | n | n | n | n | n
CCOc1ccc(CCN2C(=S)N([C@@H](Cc3ccccc3)CN3CCC[C@@H]3CN3C(=S)NC[C@@H]3Cc3ccc(O)cc3)C[C@@H]2CC(C)C)cc1 | x | x | 9.2µM | 9.2µM | x
CCOc1ccc(CCN2C(=S)N([C@@H](Cc3ccc(O)cc3)CN3CCC[C@@H]3CN3C(=S)NC[C@@H]3CC(C)C)C[C@@H]2Cc2ccc(O)cc2)cc1 | x | x | 5.17µM | 3.66µM | x
CCn1c(COc2ccc(Cl)cc2)nnc1SC1CCc2ccccc2C1=O (stereo not drawn) | n | n | u | 20.6µM | n
Cc1cc(C)c2c(N)c(C(=O)N/N=C/c3cccs3)sc2n1 | n | n | n | u | x
Cc1ccc2c(CN3CCC(C(N)=O)CC3)cc(=O)oc2c1C | n | n | n | n | n
COc1ccccc1-c1cc(C(F)(F)F)nc(S(C)(=O)=O)n1 | n | u | 3.66µM | 5.8µM | n
COc1ccc(NC(=O)CCCS(=O)(=O)c2nc(-c3ccccc3OC)cc(C(F)(F)F)n2)c(OC)c1 | x | u | n | n | n
COc1ccccc1-c1cc(C(F)(F)F)nc(S(=O)(=O)CCCC(=O)NC(C)C)n1 | n | n | 2.31µM | 3.26µM | n
COc1ccccc1-c1cc(C(F)(F)F)nc(N2CCCC2)n1 | n | n | n | u | n
COc1ccccc1-c1cc(C(F)(F)F)nc(S(=O)(=O)CCCC(=O)NCc2ccc(F)cc2)n1 | n | u | 2.91µM | 4.11µM | n
